Values quoted from earlier work in US7897758B2, “Activators for oligonucleotide and phosphoramidite synthesis” (dated 2011).

Conditions: background statement

1H-tetrazole
classification as explosive in Germany: Category A explosive

This is a selection: effects in other tests are not listed, and their absence says nothing.
